Assay results from patent US11292791B2 (priority 2017, dated 2022).

Target: BRD4 (Homo sapiens (Human), UniProt O60885)
Details: read-out: BRD4 IC50 (μM gmean)

SMILES | IC50 [µM]
COC(=O)N1c2ccc3c(nc(C(C)Oc4cccnc4)n3C3CCC(C(=O)O)CC3)c2CC[C@@H]1C (stereo partly drawn) [Example 599] | 0.1 to 1
COC(=O)N1c2ccc3c(nc(C(O)c4ccc5[nH]ccc5c4)n3C3CCCC(C(=O)O)C3)c2CC[C@@H]1C (stereo partly drawn) [Example 608] | 0.01 to 0.1
COC(=O)N1c2ccc3c(nc(CC(O)c4ccccc4)n3C3CCCC(C(=O)O)C3)c2CC[C@@H]1C (stereo partly drawn) [Example 647] | 0.1 to 1
COC(=O)N1c2ccc3c(nc(C(O)c4cc(F)c5c(c4)CCO5)n3C3CCCC(C(=O)O)C3)c2CC[C@@H]1C (stereo partly drawn) [Example 474] | 0.1 to 1
COC(=O)N1c2ccc3c(nc(C(C)Cn4cc(Cl)cn4)n3C3CCNC3)c2CC[C@@H]1C (stereo partly drawn) [Example 944] | 1 to 1000
COC(=O)N1c2ccc3c(nc(CC(O)c4ccccc4)n3C3CCC(C(=O)O)CC3)c2CC[C@@H]1C (stereo partly drawn) [Example 800] | 0.1 to 1
COC(=O)N1c2ccc3c(nc(C(C)Cn4cc(Cl)cn4)n3C3CCCNCC3)c2CC[C@@H]1C (stereo partly drawn) [Example 932] | 1 to 1000
COC(=O)N1c2ccc3c(nc(CCC4CCCO4)n3C3CCCC(C(=O)O)C3)c2CC[C@@H]1C (stereo partly drawn) [Example 679] | 1 to 1000
COC(=O)N1c2ccc3c(nc(C(O)c4cc(F)cc(F)c4OC)n3C3CCCC(C(=O)O)C3)c2CC[C@@H]1C (stereo partly drawn) [Example 649] | 1 to 1000
COC(=O)N1c2ccc3c(nc(Cn4ccccc4=O)n3[C@H]3CCC[C@@H](O)C3)c2CC[C@@H]1C [Example 67] | 1 to 1000
COC(=O)N1c2ccc3c(nc(C(C)Cn4ccc(Cl)n4)n3C3CCC(C(=O)O)CC3)c2CC[C@@H]1C (stereo partly drawn) [Example 790] | 1 to 1000
COC(=O)N1c2ccc3c(nc(C(O)c4cc(Cl)c5c(c4)CCO5)n3C3CCCC(C(=O)O)C3)c2CC[C@@H]1C (stereo partly drawn) [Example 461] | 0.1 to 1
COC(=O)N1c2ccc3c(nc(C(C)Cc4ccccc4)n3C3CCCNCC3)c2CC[C@@H]1C (stereo partly drawn) [Example 734] | 1 to 1000
COC(=O)N1c2ccc3c(nc(C(C)Cn4cc(Cl)cn4)n3C3CC4(CCNC4)C3)c2CC[C@@H]1C (stereo partly drawn) [Example 910] | 1 to 1000
COC(=O)N1c2ccc3c(nc(C(C)CN4CCCCC4=O)n3C3CCCC(C(=O)O)C3)c2CC[C@@H]1C (stereo partly drawn) [Example 808] | 0.1 to 1
COC(=O)N1c2ccc3c(nc(C(O)c4cccc5c4COC5)n3C3CCCC(C(=O)O)C3)c2CC[C@@H]1C (stereo partly drawn) [Example 701] | 1 to 1000
COC(=O)N1c2ccc3c(nc(Cn4ccccc4=O)n3[C@H]3CCC[C@H](O)C3)c2CC[C@@H]1C [Example 70] | 1 to 1000
COC(=O)N1c2ccc3c(nc(C(O)Cc4ccccc4)n3C3CCCC(C(=O)O)C3)c2CC[C@@H]1C (stereo partly drawn) [Example 822] | 1 to 1000
COC(=O)N1c2ccc3c(nc(C(O)c4cc(F)cc(F)c4)n3C3CCCC(C(=O)O)C3)c2CC[C@@H]1C (stereo partly drawn) [Example 493] | 0.1 to 1
COC(=O)N1c2ccc3c(nc(C(C)Cn4cc(Cl)cn4)n3C3CCNC3)c2CC[C@@H]1C (stereo partly drawn) [Example 811] | 1 to 1000
COC(=O)N1c2ccc3c(nc(C(OC)c4ccccc4)n3C3CCCC(C(=O)O)C3)c2CC[C@@H]1C (stereo partly drawn) [Example 513] | 1 to 1000
COC(=O)N1c2ccc3c(nc(C(C)Cc4ccccc4)n3C3CCCNCC3)c2CC[C@@H]1C (stereo partly drawn) [Example 942] | 1 to 1000
COC(=O)N1c2ccc3c(nc(C(C)Cc4cnccn4)n3C3CCC(C(=O)O)CC3)c2CC[C@@H]1C (stereo partly drawn) [Example 801] | 1 to 1000

SMILES | IC50 [µM]
COC(=O)N1c2ccc3c(nc(C(C)Cc4ccccc4)n3C3CCCNCC3)c2CC[C@@H]1C (stereo partly drawn) [Example 953] | 1 to 1000
COC(=O)N1c2ccc3c(nc(CCC4CCCO4)n3C3CCCC(C(=O)O)C3)c2CC[C@@H]1C (stereo partly drawn) [Example 897] | 1 to 1000
COC(=O)N1c2ccc3c(nc(C(C)Cc4cnccn4)n3C3CCCC(C(=O)O)C3)c2CC[C@@H]1C (stereo partly drawn) [Example 848] | 1 to 1000
COC(=O)N1c2ccc3c(nc(CCC4CCCO4)n3C3CCCC(C(=O)O)C3)c2CC[C@@H]1C (stereo partly drawn) [Example 886] | 0.1 to 1
COC(=O)N1c2ccc3c(nc(C(O)C4CCCCCC4)n3C3CCCC(C(=O)O)C3)c2CC[C@@H]1C (stereo partly drawn) [Example 615] | 1 to 1000
COC(=O)N1c2ccc3c(nc(C(C)Cc4ccc(F)c(F)c4)n3C3CCC4(CC3)CNC4)c2CC[C@@H]1C (stereo partly drawn) [Example 921] | 1 to 1000
COC(=O)N1c2ccc3c(nc(C(O)c4ccc(C)c(F)c4)n3C3CCCC(C(=O)O)C3)c2CC[C@@H]1C (stereo partly drawn) [Example 415] | 0.1 to 1
COC(=O)N1c2ccc3c(nc(C(C)Cn4cc(Cl)cn4)n3C3CCNC3)c2CC[C@@H]1C (stereo partly drawn) [Example 950] | 1 to 1000
COC(=O)N1c2ccc3c(nc(C(O)c4cc(F)ccc4OC(C)C)n3C3CCCC(C(=O)O)C3)c2CC[C@@H]1C (stereo partly drawn) [Example 662] | 0.1 to 1
COC(=O)N1c2ccc3c(nc(C(C)Cn4cc(Cl)cn4)n3C3CC4(CCNC4)C3)c2CC[C@@H]1C (stereo partly drawn) [Example 836] | 0.1 to 1
COC(=O)N1c2ccc3c(nc(C(C)c4ccc(OC)c(F)c4)n3C3CCC(C(=O)O)CC3)c2CC[C@@H]1C (stereo partly drawn) [Example 477] | 1 to 1000
COC(=O)N1c2ccc3c(nc(C(O)c4c(OC)ccc(F)c4OC)n3C3CCCC(C(=O)O)C3)c2CC[C@@H]1C (stereo partly drawn) [Example 770] | 1 to 1000
COC(=O)N1c2ccc3c(nc(C(O)c4c(OC)ccc(F)c4F)n3C3CCCC(C(=O)O)C3)c2CC[C@@H]1C (stereo partly drawn) [Example 638] | 1 to 1000
COC(=O)N1c2ccc3c(nc(Cn4ccccc4=O)n3[C@@H]3CCC[C@@H](O)C3)c2CC[C@@H]1C [Example 69] | 1 to 1000
COC(=O)N1c2ccc3c(nc(C(Cc4ccccc4)NC(C)=O)n3C3CCC(C(=O)O)CC3)c2CC[C@@H]1C (stereo partly drawn) [Example 855] | 1 to 1000
COC(=O)N1c2ccc3c(nc(C(O)Cc4ccccc4)n3C3CCC(C(=O)O)CC3)c2CC[C@@H]1C (stereo partly drawn) [Example 817] | 0.1 to 1
COC(=O)N1c2ccc3c(nc(C(c4ccccc4)C(C)C)n3C3CCC(C(=O)O)CC3)c2CC[C@@H]1C (stereo partly drawn) [Example 869] | 1 to 1000
COC(=O)N1c2ccc3c(nc(C(C)C(=O)N4CCCCC4)n3C3CCCC(C(=O)O)C3)c2CC[C@@H]1C (stereo partly drawn) [Example 624] | 0.1 to 1
COC(=O)N1c2ccc3c(nc(C(O)c4cccc(Cl)c4)n3C3CCCC(C(=O)O)C3)c2CC[C@@H]1C (stereo partly drawn) [Example 523] | 0.1 to 1
COC(=O)N1c2ccc3c(nc(C(O)c4ccc(OC)cc4)n3C3CCCC(C(=O)O)C3)c2CC[C@@H]1C (stereo partly drawn) [Example 682] | 1 to 1000
COC(=O)N1c2ccc3c(nc(C(C)Cc4ccccc4)n3C3CCC4(CC3)CNC4)c2CC[C@@H]1C (stereo partly drawn) [Example 919] | 1 to 1000
COC(=O)N1c2ccc3c(nc(C(O)c4ccc5[nH]ncc5c4)n3C3CCCC(C(=O)O)C3)c2CC[C@@H]1C (stereo partly drawn) [Example 612] | 0.1 to 1
COC(=O)N1c2ccc3c(nc(C(O)c4cc5ccccc5cn4)n3C3CCCC(C(=O)O)C3)c2CC[C@@H]1C (stereo partly drawn) [Example 631] | 1 to 1000

SMILES | IC50 [µM]
COC(=O)N1c2ccc3c(nc(C(C)OC4CCCCC4)n3C3CCC(C(=O)O)CC3)c2CC[C@@H]1C (stereo partly drawn) [Example 558] | 1 to 1000
COC(=O)N1c2ccc3c(nc(C(C)CN4CCCCC4=O)n3C3CCCC(C(=O)O)C3)c2CC[C@@H]1C (stereo partly drawn) [Example 898] | 1 to 1000
COC(=O)N1c2ccc3c(nc(C(O)c4cccc5c4OCC5)n3C3CCCC(C(=O)O)C3)c2CC[C@@H]1C (stereo partly drawn) [Example 578] | 1 to 1000
COC(=O)N1c2ccc3c(nc(C(O)c4ccc5c(c4)CCO5)n3C3CCCC(C(=O)O)C3)c2CC[C@@H]1C (stereo partly drawn) [Example 460] | 0.1 to 1
COC(=O)N1c2ccc3c(nc(C(O)c4ccc5ocnc5c4)n3C3CCCC(C(=O)O)C3)c2CC[C@@H]1C (stereo partly drawn) [Example 499] | 0.1 to 1
COC(=O)N1c2ccc3c(nc(C(O)c4cc(Cl)ccc4OC)n3C3CCCC(C(=O)O)C3)c2CC[C@@H]1C (stereo partly drawn) [Example 630] | 0.1 to 1
COC(=O)N1c2ccc3c(nc(N(C)c4ccccc4)n3[C@H]3CC[C@H](C(=O)O)CC3)c2CC[C@@H]1C [Example 659] | 1 to 1000
COC(=O)N1c2ccc3c(nc(C(C)Cn4cc(Cl)cn4)n3C3CC4(CCNCC4)C3)c2CC[C@@H]1C (stereo partly drawn) [Example 940] | 1 to 1000
COC(=O)N1c2ccc3c(nc(CC4CCCCO4)n3C3CCCC(C(=O)O)C3)c2CC[C@@H]1C (stereo partly drawn) [Example 559] | 1 to 1000
COC(=O)N1c2ccc3c(nc(C(O)c4cccc(OC)c4)n3C3CCCC(C(=O)O)C3)c2CC[C@@H]1C (stereo partly drawn) [Example 538] | 1 to 1000
COC(=O)N1c2ccc3c(nc(C(C)Oc4ccccn4)n3C3CCC(C(=O)O)CC3)c2CC[C@@H]1C (stereo partly drawn) [Example 793] | 1 to 1000
COC(=O)N1c2ccc3c(nc(C(O)c4ccc(OC)c(F)c4)n3C3CCCC(C(=O)O)C3)c2CC[C@@H]1C (stereo partly drawn) [Example 438] | 0.1 to 1
COC(=O)N1c2ccc3c(nc(C(C)Cc4ccc(F)c(F)c4)n3C3CCNCC3)c2CC[C@@H]1C (stereo partly drawn) [Example 931] | 1 to 1000
COC(=O)N1c2ccc3c(nc(C(C)(O)c4cc(F)ccc4OC)n3C3CCCC(C(=O)O)C3)c2CC[C@@H]1C (stereo partly drawn) [Example 957] | 1 to 1000
COC(=O)N1c2ccc3c(nc(C(O)c4cc(F)cc(OC)c4)n3C3CCCC(C(=O)O)C3)c2CC[C@@H]1C (stereo partly drawn) [Example 418] | 0.1 to 1
COC(=O)N1c2ccc3c(nc(C(C)n4c(O)cc5ccccc54)n3C3CCCC(C(=O)O)C3)c2CC[C@@H]1C (stereo partly drawn) [Example 722] | 0.1 to 1
COC(=O)N1c2ccc3c(nc(C(O)c4cc(Cl)cc(OC)c4)n3C3CCCC(C(=O)O)C3)c2CC[C@@H]1C (stereo partly drawn) [Example 433] | 0.1 to 1
COC(=O)N1c2ccc3c(nc(CCC4CCCCO4)n3C3CCCC(C(=O)O)C3)c2CC[C@@H]1C (stereo partly drawn) [Example 889] | 0.1 to 1
COC(=O)N1c2ccc3c(nc(C(NC(C)=O)c4ccccc4)n3C3CCCC(C(=O)O)C3)c2CC[C@@H]1C (stereo partly drawn) [Example 525] | 0.1 to 1
COC(=O)N1c2ccc3c(nc(C(C)OC4CCOCC4)n3C3CCCC(C(=O)O)C3)c2CC[C@@H]1C (stereo partly drawn) [Example 603] | 1 to 1000
COC(=O)N1c2ccc3c(nc(C(O)c4ccc5oc(C)nc5c4)n3C3CCCC(C(=O)O)C3)c2CC[C@@H]1C (stereo partly drawn) [Example 565] | 1 to 1000
COC(=O)N1c2ccc3c(nc(CCC4CCCCO4)n3C3CCCC(C(=O)O)C3)c2CC[C@@H]1C (stereo partly drawn) [Example 864] | 1 to 1000
COC(=O)N1c2ccc3c(nc(C(O)c4ccc(OC)cc4Cl)n3C3CCCC(C(=O)O)C3)c2CC[C@@H]1C (stereo partly drawn) [Example 431] | 0.1 to 1
